This is a selection; strong and weak results do not stand in their true shares. Some tests of the compounds listed are not included; inactive here does not mean inactive elsewhere. The source made the active and inactive calls. Cut-off read from the data, not from the text of the source: active = inhibition above about 20%; inactive = the rest.
Molecular target: DNA-directed RNA polymerase subunit beta (Escherichia coli (strain K12)) (UniProt P0A8V2)
Assay: E. coli RNAP inhibitors, biochemical (AID 559);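 note: 0% = enzyme without compound and 100% = no enzyme blank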
Details: fluorescence transcription assay, hits give high values,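 tested at 10 µM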

Amino acid sequences for entries named in this document (tags omitted).
UniProt P0A8V2, whole entry: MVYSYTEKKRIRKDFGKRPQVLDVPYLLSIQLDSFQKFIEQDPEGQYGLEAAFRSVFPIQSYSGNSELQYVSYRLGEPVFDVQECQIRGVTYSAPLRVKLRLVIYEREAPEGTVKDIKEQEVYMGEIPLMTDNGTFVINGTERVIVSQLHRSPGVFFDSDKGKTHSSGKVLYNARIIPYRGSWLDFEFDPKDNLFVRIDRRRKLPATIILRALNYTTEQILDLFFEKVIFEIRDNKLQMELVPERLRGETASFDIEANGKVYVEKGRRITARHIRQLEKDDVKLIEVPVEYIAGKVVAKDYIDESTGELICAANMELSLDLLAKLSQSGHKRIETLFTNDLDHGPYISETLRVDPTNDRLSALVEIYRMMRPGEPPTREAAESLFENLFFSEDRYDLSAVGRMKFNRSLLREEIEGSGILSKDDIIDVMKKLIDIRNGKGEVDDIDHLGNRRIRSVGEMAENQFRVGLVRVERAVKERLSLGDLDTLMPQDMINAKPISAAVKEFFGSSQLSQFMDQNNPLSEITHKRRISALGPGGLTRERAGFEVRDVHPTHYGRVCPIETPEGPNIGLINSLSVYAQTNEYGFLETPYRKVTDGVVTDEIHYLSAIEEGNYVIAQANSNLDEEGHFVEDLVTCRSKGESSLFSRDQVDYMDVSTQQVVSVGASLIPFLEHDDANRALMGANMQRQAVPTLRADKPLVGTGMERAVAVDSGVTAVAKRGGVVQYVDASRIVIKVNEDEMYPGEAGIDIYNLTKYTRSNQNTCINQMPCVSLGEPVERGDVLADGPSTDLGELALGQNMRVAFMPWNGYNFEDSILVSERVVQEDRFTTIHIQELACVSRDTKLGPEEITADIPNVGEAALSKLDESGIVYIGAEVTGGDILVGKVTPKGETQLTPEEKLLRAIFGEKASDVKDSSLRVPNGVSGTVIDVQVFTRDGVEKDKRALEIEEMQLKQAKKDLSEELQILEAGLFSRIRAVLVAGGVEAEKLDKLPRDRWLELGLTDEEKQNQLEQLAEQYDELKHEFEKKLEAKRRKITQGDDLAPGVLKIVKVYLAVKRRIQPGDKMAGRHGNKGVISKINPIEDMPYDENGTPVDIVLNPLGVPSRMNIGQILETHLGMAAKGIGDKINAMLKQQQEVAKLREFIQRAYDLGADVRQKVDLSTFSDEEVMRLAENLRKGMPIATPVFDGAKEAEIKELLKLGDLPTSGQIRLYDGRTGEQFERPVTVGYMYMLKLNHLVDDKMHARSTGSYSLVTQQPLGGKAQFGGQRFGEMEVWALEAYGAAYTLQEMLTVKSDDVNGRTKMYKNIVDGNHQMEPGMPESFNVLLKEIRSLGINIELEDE

Q: For `O=C(OC1CN2CCC1CC2)C(CO)(c1ccccc1)c1ccccc1` (configuration not stated), which inhibition is on record?
A: inactive: 10.4%

Q: For `CN(C)c1cccc(C(=O)NCC2(N(C)C)CCCCC2)c1`, which inhibition is on record?
A: inactive: 7.59%

— PubChem BioAssay AID559 (PCMD, 2006)
